The values that follow come from US20230393125A1.

Assay [1] concerns the target human C5 (human) (UniProt P01031). The assay can be described thus: Gyrolab free-antigen assay; undiluted human serum ID1 + 100 µg/mL Crovalimab.
For assay [2] the target is unchanged. The assay can be described thus: Gyrolab free-antigen assay; undiluted human serum ID2 + 100 µg/mL Crovalimab.
The target is the same in assay [3]. The assay can be described thus: Gyrolab free-antigen assay; undiluted human serum ID3 + 100 µg/mL Crovalimab.
Assay [4] has the same target. The assay can be described thus: Gyrolab free-antigen assay in 100% serum; serum ID 1; average of five antibody concentrations.
For assay [5] the target is unchanged. The assay can be described thus: Gyrolab free-antigen assay in 100% serum; serum ID 2; average of five antibody concentrations.
The target is the same in assay [6]. The assay can be described thus: Gyrolab free-antigen assay in 100% serum; serum ID 3; average of five antibody concentrations.
Assay [7] has the same target. The assay can be described thus: Gyrolab free-antigen assay in 100% serum; average over all sera; standard deviation 0.012 nM.
Assay [8] has the same target. The assay can be described thus: Gyrolab free-antigen assay in 100% serum (human serum 1:40 in horse serum); serum ID 1; 1000 ng/mL antibody.
The target is the same in assay [9]. The assay can be described thus: Gyrolab free-antigen assay in 100% serum (human serum 1:40 in horse serum); serum ID 1; 2000 ng/mL antibody.
Assay [10] has the same target. The assay can be described thus: Gyrolab free-antigen assay in 100% serum (human serum 1:40 in horse serum); serum ID 1; 3000 ng/mL antibody.
The target is the same in assay [11]. The assay can be described thus: Gyrolab free-antigen assay in 100% serum (human serum 1:40 in horse serum); serum ID 1; 4000 ng/mL antibody.
Assay [12] shares this target. The assay can be described thus: Gyrolab free-antigen assay in 100% serum (human serum 1:40 in horse serum); serum ID 1; 5000 ng/mL antibody.
Assay [13] shares this target. The assay can be described thus: Gyrolab free-antigen assay in 100% serum (human serum 1:40 in horse serum); serum ID 2; 1000 ng/mL antibody.
The target is the same in assay [14]. The assay can be described thus: Gyrolab free-antigen assay in 100% serum (human serum 1:40 in horse serum); serum ID 2; 2000 ng/mL antibody.
Assay [15] shares this target. The assay can be described thus: Gyrolab free-antigen assay in 100% serum (human serum 1:40 in horse serum); serum ID 2; 3000 ng/mL antibody.
For assay [16] the target is unchanged. The assay can be described thus: Gyrolab free-antigen assay in 100% serum (human serum 1:40 in horse serum); serum ID 2; 4000 ng/mL antibody.
Assay [17] has the same target. The assay can be described thus: Gyrolab free-antigen assay in 100% serum (human serum 1:40 in horse serum); serum ID 2; 5000 ng/mL antibody.
Assay [18] has the same target. The assay can be described thus: Gyrolab free-antigen assay in 100% serum (human serum 1:40 in horse serum); serum ID 3; 1000 ng/mL antibody.
The target is the same in assay [19]. The assay can be described thus: Gyrolab free-antigen assay in 100% serum (human serum 1:40 in horse serum); serum ID 3; 2000 ng/mL antibody.
For assay [20] the target is unchanged. The assay can be described thus: Gyrolab free-antigen assay in 100% serum (human serum 1:40 in horse serum); serum ID 3; 3000 ng/mL antibody.
For assay [21] the target is unchanged. The assay can be described thus: Gyrolab free-antigen assay in 100% serum (human serum 1:40 in horse serum); serum ID 3; 4000 ng/mL antibody.
The target is the same in assay [22]. The assay can be described thus: Gyrolab free-antigen assay in 100% serum (human serum 1:40 in horse serum); serum ID 3; 5000 ng/mL antibody.

With Crovalimab (antibody), the free target concentration with human C5 (human) [1] was 6.5 ng/mL; with human C5 (human) [2], 8.2 ng/mL; in the assay with human C5 (human) [3], 7.6 ng/mL. Also, the Kd with human C5 (human) [4] was 0.047 nM; with human C5 (human) [5], 0.054 nM; with human C5 (human) [6], 0.048 nM; with human C5 (human) [7], 0.05 nM; in the assay with human C5 (human) [8], 0.046 nM; in the assay with human C5 (human) [9], 0.036 nM. Also, the Kd with human C5 (human) [10] was found to be 0.056 nM; with human C5 (human) [11] it was 0.046 nM; with human C5 (human) [12] it was 0.049 nM; with human C5 (human) [13] it was 0.072 nM; with human C5 (human) [14], 0.04 nM; in the assay with human C5 (human) [15], 0.041 nM. For the same substance, the Kd was determined as 0.043 nM with human C5 (human) [16]; 0.076 nM in the assay with human C5 (human) [17]; 0.06 nM with human C5 (human) [18]; 0.039 nM with human C5 (human) [19]; 0.042 nM with human C5 (human) [20]; 0.051 nM with human C5 (human) [21]. In the assay with human C5 (human) [22], this substance showed a Kd of 0.048 nM.
